# Results published in PubChem BioAssay AID1645854 (Buhrlage Lab, Dana-Farber Cancer Institute and Novartis …, 2021).
# Protein sequences, listed by entry. Tags and fused reporters are not part of them.
# UniProt Q93009, whole entry: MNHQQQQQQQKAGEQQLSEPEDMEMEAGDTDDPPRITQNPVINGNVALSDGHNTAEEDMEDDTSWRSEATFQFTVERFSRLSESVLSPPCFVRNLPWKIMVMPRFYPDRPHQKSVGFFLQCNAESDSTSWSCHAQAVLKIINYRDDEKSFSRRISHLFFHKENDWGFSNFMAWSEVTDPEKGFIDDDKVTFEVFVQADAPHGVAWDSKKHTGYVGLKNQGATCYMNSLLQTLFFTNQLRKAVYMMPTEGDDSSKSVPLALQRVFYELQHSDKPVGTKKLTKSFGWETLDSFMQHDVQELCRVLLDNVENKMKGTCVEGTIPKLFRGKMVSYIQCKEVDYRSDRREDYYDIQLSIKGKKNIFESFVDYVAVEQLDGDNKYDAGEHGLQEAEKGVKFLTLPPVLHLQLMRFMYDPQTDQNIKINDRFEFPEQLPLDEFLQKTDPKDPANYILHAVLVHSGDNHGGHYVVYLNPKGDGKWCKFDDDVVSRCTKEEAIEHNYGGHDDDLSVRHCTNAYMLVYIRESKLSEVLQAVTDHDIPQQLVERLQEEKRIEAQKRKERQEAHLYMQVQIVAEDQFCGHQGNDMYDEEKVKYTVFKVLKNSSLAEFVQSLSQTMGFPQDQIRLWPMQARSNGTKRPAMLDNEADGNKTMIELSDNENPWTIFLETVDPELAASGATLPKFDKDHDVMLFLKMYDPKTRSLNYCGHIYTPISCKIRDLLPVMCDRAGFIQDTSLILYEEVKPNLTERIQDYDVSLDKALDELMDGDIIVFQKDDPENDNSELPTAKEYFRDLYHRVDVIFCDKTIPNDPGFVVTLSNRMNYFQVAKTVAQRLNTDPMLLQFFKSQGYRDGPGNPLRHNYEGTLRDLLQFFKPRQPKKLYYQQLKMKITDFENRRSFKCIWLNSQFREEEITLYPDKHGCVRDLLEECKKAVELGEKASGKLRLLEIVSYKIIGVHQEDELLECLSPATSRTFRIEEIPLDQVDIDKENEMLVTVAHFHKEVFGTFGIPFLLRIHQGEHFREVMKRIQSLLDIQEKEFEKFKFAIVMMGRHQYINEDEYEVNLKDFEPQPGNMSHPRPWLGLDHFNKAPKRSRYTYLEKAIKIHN
# The entries are a selection whose mix differs from that of the whole data set. Some of these compounds have results that are not shown, active ones among them. Calls of active or inactive are those of the source. Rule as the data show it: active = inhibition above about 30%; inactive = the rest.
# Biological target: Ubiquitin carboxyl-terminal hydrolase 7 (Homo sapiens) (UniProt Q93009)
# Assay: inhibitors of human USP7 deubiquitinase (AID 1645854)
# Details: purified USP7, Ub-rhodamine cleavage fluorescence; at 20 µM; stronger effect = higher value
row,Structure (SMILES),inhibition
1,O=C(NCC1(N2CCCCC2)CCCCC1)c1ccc2c(c1)OCCO2,inactive: 5.98%
2,COc1ccc(C(=O)NCC2(N3CCOCC3)CCCCC2)cc1,inactive: -0.0416%
3,COc1cccc(C(=O)NCC2(N3CCCCC3)CCCCC2)c1,inactive: -6.63%
4,Cc1c(C(=O)NCC2(N(C)C)CCCCC2)oc2ccc(F)cc12,inactive: 0.771%
5,Cc1c(C(=O)NCC2(N(C)C)CCCCC2)oc2ccccc12,inactive: 0.628%
6,O=C(NCC1(N2CCOCC2)CCCCC1)c1ccccc1F,inactive: -1.3%
7,O=C(NCC1(N2CCCCC2)CCCCC1)c1ccc2ccccc2c1,inactive: -5.37%
